High-throughput results from PubChem.
PDI inh: inhibitors of human PDI, primary screen, biochemical, turbidity, single point, plate reader | PDI insulin aggregation turbidity, A650, 90 min | inhibition, % at 10 µM | 350,000 tested, 0.052% active;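 active = mean inhibition across replicates of 30% or more, whatever share of single replicates reach that level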
S100A4 inh HTS: inhibitors of S100A4-myosin IIA peptide binding, primary screen, biochemical, fluorescence polarization, TAMRA-MyoIIA peptide | inhibition, % at 10.7 µM | Protein S100-A4 (Homo sapiens), P26447 | AID 652163, 2013 | 360,000 tested, 0.14% active;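 active = mean inhibition of at least 70% across replicates, with every replicate also reaching that level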
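incubation = readout 5 min after mixing, signal stable up to 60 min | system = S100A4 monomer protein | buffer or medium = HEPES pH 7.2 with CaCl2, KCl, NaCl, DTT, Triton | benchmarks = neutral control DMSO, positive control TFP | also added = fluorescent myosin IIA peptide, 5 nM | compound dosing = one concentration per compound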
SIRT5 block: SIRT5 desuccinylase inhibitors, primary screen, biochemical, fluorescence imaging, single point, set 5; NAD-dependent protein deacylase sirtuin-5, mitochondrial (Homo sapiens), Q9NXA8; Purified SirT5, succinyl-peptide AMC, trypsin-coupled fluorescence; inhibition, % at 15 µM; 330,000 tested, 1.1% active; AID 652115, 2013; in the data active = inhibition above about 15%
FGF22 binding: binders of human FGF22 protein, primary screen, FGF22 synaptogenesis inhibitor project, biophysical, thermal shift, single point. Fibroblast growth factor 22 (Homo sapiens), Q9HCT0. recombinant FGF22 thermal shift, SYPRO orange fluorescence; percent of sucrose octasulfate shift, DMSO zero. activity (Tm shift, normalised), % at 9.99 µM. 340,000 tested, 1.5% active;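 active = mean Tm shift, scaled 0 neutral to 100 positive control, at about 1.3% or above, every replicate too, limit read from the data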
ERp5 block: inhibitors of ERp5-driven insulin aggregation, primary screen, biochemical, turbidity, absorbance 650 nm, single point; Protein disulfide-isomerase A6 (Homo sapiens), Q15084; 90 min; inhibition, % at 9.99 µM; 350,000 tested, 0.05% active; AID 651711, 2012;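 active = mean replicate inhibition above about 25%, with every replicate also reaching it, limit read from the data, passing the limit was not always enough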
UUG fidelity: alters start codon recognition fidelity in yeast. S. cerevisiae UUG-firefly luciferase reporter, luminescence/redox ratio. 350,000 tested, 0.13% active. activity score, % at 18.7 µM. AID 602363;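 active means replicate mean at a twofold rise or more, about +100% in these data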;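 further: firefly luciferase made from a UUG start codon reports start codon fidelity; reporter light over untreated wells divided by growth signal over untreated wells; some hits fall short of that in this replicate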
* = called active by the depositor; . = no result; ! = not confirmed by another sample. A selection: hits, their analogues and other compounds. The true share with any hit is near 2.2%.

By UniProt entry, the sequences of proteins in these tests, tags left out.
Protein disulfide-isomerase A6 (Homo sapiens), Q15084, UniProt Q15084, whole entry, looked up: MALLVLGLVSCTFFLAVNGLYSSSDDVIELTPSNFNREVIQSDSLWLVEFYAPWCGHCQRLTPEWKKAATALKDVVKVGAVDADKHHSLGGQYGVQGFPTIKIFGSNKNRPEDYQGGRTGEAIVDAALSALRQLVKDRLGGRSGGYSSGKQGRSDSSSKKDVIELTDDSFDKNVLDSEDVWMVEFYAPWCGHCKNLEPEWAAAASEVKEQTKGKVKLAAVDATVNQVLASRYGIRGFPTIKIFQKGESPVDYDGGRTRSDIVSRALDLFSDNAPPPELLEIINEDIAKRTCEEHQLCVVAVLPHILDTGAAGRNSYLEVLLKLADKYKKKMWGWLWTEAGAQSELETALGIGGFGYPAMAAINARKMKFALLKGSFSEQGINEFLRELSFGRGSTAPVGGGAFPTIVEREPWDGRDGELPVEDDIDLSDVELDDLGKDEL

SMILES	PDI inh	S100A4 inh HTS	SIRT5 block	FGF22 binding	ERp5 block	UUG fidelity
Cc1cnc(C(=O)OCC(=O)c2cc(C)n(C)c2C)cn1	6	-3	-1	43*	0	.
Cc1cnc(C(=O)OCC(=O)NC23CC4CC(CC(C4)C2)C3)cn1	-2	2	1	0	-1	-2
Cc1cnc(C(=O)OCC(=O)C23CC4CC(CC(C4)C2)C3)cn1	0	-5	17*	0	-1	-14
COc1cccc(-c2ccc([C@@H]3[C@@H](C#N)N(C(=O)Cc4ccccc4)[C@@H]3CO)cc2)c1	.	1	6	0	7	6
CC(C)c1ccccc1NC(=S)NC(C)c1ccccc1 (stereo unspecified)	-6	-6	-2	44*	1	.
CC(NC(=S)Nc1ccc(F)cc1)c1ccccc1 (stereo unspecified)	7	-13	-4	.	4	-2
CC(Oc1ccccc1)C(=O)Nc1nc(-c2ccccn2)cs1 (stereo unspecified)	0	0	1	0	1	-29
C[C@H](NC(=O)c1ccccc1)C(=O)Nc1nc(-c2ccccn2)cs1	-6	8	-4	43*	-1	.
CC(C)OC(=O)N(C)C[C@@H]1OCc2cn(nn2)CCCC(=O)N([C@@H](C)CO)C[C@@H]1C	.	-1	16*	0	0	-2
C[C@H](CO)N1C[C@H](C)[C@H](CN(C)C(=O)CCCN(C)C)OCc2cn(nn2)CCCC1=O	.	20	17*	0	-2	6
C[C@@H]1CN([C@H](C)CO)C(=O)CCCn2cc(nn2)CO[C@@H]1CN(C)S(=O)(=O)c1ccc(F)cc1	.	-5	0	0	-1	0
CC(C)OC(=O)N(C)C[C@@H]1OCc2cn(nn2)CCCC(=O)N([C@H](C)CO)C[C@H]1C	7	-4	27*	0	-3	-1

Four of these compounds, set out differently:
Values run as follows: PDI inh, S100A4 inh HTS, SIRT5 block, FGF22 binding, ERp5 block, UUG fidelity
- CC(C)c1ccccc1NC(=S)NC(C)c1ccccc1 (stereo unspecified)
  -6, -6, -2, 44*, 1, .
- CC(C)OC(=O)N(C)C[C@@H]1OCc2cn(nn2)CCCC(=O)N([C@@H](C)CO)C[C@@H]1C
  ., -1, 16*, 0, 0, -2
- COc1cccc(-c2ccc([C@@H]3[C@@H](C#N)N(C(=O)Cc4ccccc4)[C@@H]3CO)cc2)c1
  ., 1, 6, 0, 7, 6
- CC(Oc1ccccc1)C(=O)Nc1nc(-c2ccccn2)cs1 (stereo unspecified)
  0, 0, 1, 0, 1, -29

The listing continues:
SMILES	PDI inh	S100A4 inh HTS	SIRT5 block	FGF22 binding	ERp5 block	UUG fidelity
C[C@@H]1CN([C@H](C)CO)C(=O)CCCn2cc(nn2)CO[C@H]1CN(C)S(=O)(=O)c1ccc(F)cc1	.	-13	23*!	1	1	-15
COc1ccc(S(=O)(=O)Nc2ccc3c(c2)C(=O)N([C@H](C)CO)C[C@@H](C)[C@H](CN(C)S(=O)(=O)c2c(C)noc2C)OCCCC[C@@H](C)O3)cc1	.	-7	11	0	4	10
CCCC(=O)Nc1ccc2c(c1)OC[C@H](C)N(C(=O)CC1CC1)C[C@@H](C)[C@@H](OC)CN(C)C2=O	.	3	3	0	-3	-2
COc1ccc(S(=O)(=O)N[C@@H]2C=C[C@H](CC(=O)N3CCC(Cc4ccccc4)CC3)O[C@@H]2CO)cc1	.	-5	4	0	-5	-1
O=C(Nc1ccnn1C1CCN(C2CCCC2)CC1)c1ccccc1Cl	4	-1	27*	0	1	4
CO[C@H]1CN(C)C(=O)c2ccc(NC(=O)C3CC3)cc2OC[C@H](C)N(CCC(F)(F)F)C[C@@H]1C	.	4	3	0	4	.
O=C(Nc1ccccc1)Nc1cc(OCC(F)(F)F)cc(OCC(F)(F)F)c1	-3	-3	1	44*	5	.
O=C(Nc1ccccc1)Nc1cc(Cl)cc(Cl)c1	-1	.	.	.	.	-13
CN(C)CC(=O)N[C@H]1CC[C@@H](CC(=O)NCc2ccccc2F)O[C@@H]1CO	.	38	0	0	-2	3
CCOC=C1SC(=S)N(c2ccccc2OC)C1=O	2	127*	-1	0	10	-8
CCN=c1scc(C)n1/N=C/c1cc(Br)c(O)c(Br)c1	0	-7	-2	43*	0	.
CCN1CCCCC(=N/O)/C(=N/O)CCCC1	5	1	18*	0	-2	-19
O=C(O)c1ccc2c(c1)C1C=CCC1C(c1cc3c(cc1Br)OCO3)N2 (stereo unspecified)	2	-2	1	0	0	.
